Experimental data: PubChem BioAssay AID1259373 (The Scripps Research Institute Molecular Screening Center, 2018)
Only a part is listed here, and it is no random draw. The source made the active and inactive calls. No rule for the calls is given here.

Experiment: signal-interfering artefacts in bead proximity readout – biochemical, AlphaScreen, HTS, counter-screen, dose response (AID 1259373)
Details: AlphaScreen optical interference counterscreen, cell-free

Structure (SMILES) | IC50
Cc1ccc([N+](=O)[O-])c2no[n+]([O-])c12 | inactive
CC(C)OP(=O)(OC(C)C)C(=O)c1ccco1 | inactive: > 7.35 µM
